Yeast mating assay 1: variants of the scFv Ab-14

Source: Engelhart et al. 2022 (doi:10.1038/s41597-022-01779-4), MIT Lincoln Laboratory and A-Alpha Bio; data file from the FLAb repository.

Binding partner: SARS-CoV-2 spike HR2 peptide, sequence PDVDLGDISGINAS.

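The starting antibody came from a phage panning campaign against this peptide. Library AAYL49 holds single substitutions and randomly drawn double and triple substitutions in the CDRs. The scFvs were displayed on barcoded MATa yeast, the peptide on MATalpha yeast. After mating in shaken culture at 30 °C for 16 h, diploids were selected and their barcode pairs sequenced. A regression on co-assayed BCL2-family reference pairs converts the normalised counts of each replicate to an apparent Kd. There are three technical replicates.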

Parent scFv Ab-14: VH joined to VL by a 15-residue (Gly4Ser)3 linker. Changes lie in the heavy chain CDRs alone.
VH: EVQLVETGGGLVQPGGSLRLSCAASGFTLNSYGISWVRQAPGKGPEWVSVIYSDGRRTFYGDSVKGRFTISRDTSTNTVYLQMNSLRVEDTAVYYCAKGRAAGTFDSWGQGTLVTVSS
VL: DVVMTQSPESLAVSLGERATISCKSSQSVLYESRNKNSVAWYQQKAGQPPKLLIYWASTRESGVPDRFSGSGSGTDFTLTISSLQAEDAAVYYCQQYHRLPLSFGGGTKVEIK

Each variant is given by its three heavy chain CDRs, as the data file delimits them; those of the parent are GFTLNSYGIS, VIYSDGRRTFYGDSVK, GRAAGTFDS. The Kd shown is the geometric mean over detected replicates; a lower Kd is a better binder. An entry "no signal" has no value in the source: the pair was not observed among the diploids in any replicate. This suggests poor binding but is not conclusive. Nonspecific signal, from three strains lacking the peptide, appeared in 15% of pairings of library AAYL49, centred on 11 µM (5% of these signals below 680 nM); values are not corrected for it. For each scFv, signals with the empty controls are counted beside the result.

CDR-H1 | CDR-H2 | CDR-H3 | Kd | seen in | signal with controls
GFTLNSRGIS | VIYSDGRRTFYGDSVK | GRAAKTFDE | no signal | 0 of 3 | 0 of 9
PFTLNSYGIS | VIYSDGRSTFYGDSVK | GRAAGTFDS | 3.1 µM | 1 of 3 | 0 of 9
AFTLNSRGIS | VIYSDGRRTFYGDSVK | GRAAGDFDS | no signal | 0 of 3 | 4 of 9
GFTLVSYGIS | VIYPDGRRTFGGDSVK | GRAAGTFDS | 10 µM | 2 of 3 | 7 of 9
GFTLNSYGIS | VIYCDGRPTFYGDSVK | GRPAGTFDS | no signal | 0 of 3 | 1 of 9
GKTANSYGIS | VIYSDGRRTFYGDSVK | GRAAGTFDS | 460 nM | 3 of 3 | 1 of 9
GFTLNSYGIS | RIYSDGRRTFYGDSTK | GRAAGCFDS | 81 µM | 2 of 3 | 3 of 9
GFTLNSYGIS | VIYSDGRRTFYNDSVK | GRAAGRFDS | no signal | 0 of 3 | 2 of 9
GFTLNSYGIS | VIYSDGRRTFKGDSVY | GRAAGTFDS | no signal | 0 of 3 | 0 of 9
GFTLNSDGAS | VIYSDKRRTFYGDSVK | GRAAGTFDS | 40 µM | 1 of 3 | 2 of 9
GFTLNSYGIS | VIYSDERRKFYGDSYK | GRAAGTFDS | no signal | 0 of 3 | 1 of 9
GFTLNSYGIS | VIYSWGRRTFYGDSVK | GRCAGPFDS | 14 µM | 2 of 3 | 0 of 9
GFTLNSYGIC | VIYADGQRTFYGDSVK | GRAAGTFDS | no signal | 0 of 3 | 1 of 9
GFTLNSYGGS | VIYSDGRRTFYGDSVL | GRAAGTFDE | 6.2 µM | 2 of 3 | 1 of 9
GFTLNSHGIS | VIYSDGMRPFYGDSVK | GRAAGTFDS | 73 µM | 1 of 3 | 2 of 9
GFNLTSYGIS | VIYSDGRRTFYGDSVK | GRAAGTTDS | 2.3 µM | 1 of 3 | 1 of 9
GFTLNSYGIS | VIYSDGRRTFYGDDVK | FRAWGTFDS | no signal | 0 of 3 | 2 of 9
GFTLNSYGIS | VIYSDGRRFFYGKSVK | GRAAGTFMS | no signal | 0 of 3 | 3 of 9
GFTLNSYGIS | VIYSLGRRTFYGDSVK | GRAGGTWDS | no signal | 0 of 3 | 2 of 9
WFTWNSYGIS | VIYSDGRRTFYGDSVK | GRAAGTTDS | no signal | 0 of 3 | 1 of 9
GFTLNSYGFS | VKYSDGRRTFYGDSVK | GRYAGTFDS | 64 µM | 2 of 3 | 3 of 9
GFTLMSYGIS | VDYSDGRRTFYGDSVK | VRAAGTFDS | 86 µM | 2 of 3 | 2 of 9
GFTKNSYGIS | VIYSDGRRAFYGDSVK | SRAAGTFDS | no signal | 0 of 3 | 0 of 9
GFTLNSYDIS | VIYSDGWRTFYGDSVS | GRAAGTFDS | 1.2 mM | 1 of 3 | 5 of 9
GFTLFSYYIS | VIYSDGRRTFYGDSVK | GWAAGTFDS | no signal | 0 of 3 | 0 of 9
DFTLNSYKTS | VIYSDGRRTFYGDSVK | GRAAGTFDS | 31 µM | 2 of 3 | 2 of 9
GFTINSYGIS | QIYSDGRRTFYGDSVK | GRAAMTFDS | no signal | 0 of 3 | 0 of 9
GFTLNSYGIS | VIYADGRVTFYGDSVL | GRAAGTFDS | 160 nM | 3 of 3 | 0 of 9
GFTLNSYGIS | DIYSDGRRRFYGDSVK | GREAGTFDS | 1.4 µM | 1 of 3 | 0 of 9
GFTRCSYGIS | VIYDDGRRTFYGDSVK | GRAAGTFDS | no signal | 0 of 3 | 0 of 9
GFTLNQYGIS | VIYSDGRRTFLGHSVK | GRAAGTFDS | 2.6 µM | 1 of 3 | 4 of 9
GFTLNSYGIS | VIYSDGRRTFYDDSYK | GRAAGTFYS | 4.9 µM | 1 of 3 | 0 of 9

The remaining entries, values ahead:

Kd | seen in | signal with controls | CDR-H1 | CDR-H2 | CDR-H3
no signal | 0 of 3 | 0 of 9 | GFTLNSYGIS | VIYSNGRRTFYGDDVK | GRAAGTFKS
no signal | 0 of 3 | 0 of 9 | GFTLAAYGIS | VIYSDGRRTFYGDLVK | GRAAGTFDS
no signal | 0 of 3 | 0 of 9 | GFTLNSYWIW | VIYSDGRRTFYGLSVK | GRAAGTFDS
17 µM | 2 of 3 | 1 of 9 | GFTLPSYGIS | VIYSDGRRYIYGDSVK | GRAAGTFDS
no signal | 0 of 3 | 0 of 9 | GFTLNSYGIS | VIYSDGRRTFYGDSFK | MRAGGTFDS
no signal | 0 of 3 | 1 of 9 | GFTLNSNGWS | VIYSDGRRTFYGDSVK | GNAAGTFDS
12 µM | 1 of 3 | 0 of 9 | GNTLNSYGES | VIYSDGRRTFYGDSVK | GRAAGVFDS
no signal | 0 of 3 | 0 of 9 | GFTLNSYGQS | VWYSDGRRTFYGDSVK | GRAAGGFDS
1.4 mM | 1 of 3 | 3 of 9 | GFTLNSYGIS | YIYSDGRPTFYGDSYK | GRAAGTFDS
no signal | 0 of 3 | 2 of 9 | GFTWNSYGIS | VIYSDGRRTFYGDSVK | GRAAGTYDS
no signal | 0 of 3 | 1 of 9 | GFTLNSYGAI | VIYSDHRRTFYGDSVK | GRAAGTFDS
no signal | 0 of 3 | 0 of 9 | GFTLNSRGIS | VIYSDGARTFYGDSVK | GRAAGDFDS
29 µM | 2 of 3 | 3 of 9 | GTTLNSYWIS | VIYSDGRRTFYGDSVK | GFAAGTFDS
no signal | 0 of 3 | 3 of 9 | GFQLNSYGSS | VIYSDGRRTFYGDSVM | GRAAGTFDS
4.5 µM | 2 of 3 | 4 of 9 | NFTLNSYGIS | HIYSDGRRTFYGDSVK | GRAAGTFDS
no signal | 0 of 3 | 1 of 9 | GFTLFSYGIS | VIYSDGNRTFYGDSKK | GRAAGTFDS
210 µM | 1 of 3 | 4 of 9 | GVTLNSYGIS | VIYSDGRMTFYGDSVK | GRAAQTFDS
no signal | 0 of 3 | 3 of 9 | HFTLNSYGIS | VIFSDGRRTFSGDSVK | GRAAGTFDS
62 µM | 2 of 3 | 2 of 9 | GFTLNFYGIS | VIYSLGRRTFYGDSVK | GRAAGPFDS
2.0 µM | 1 of 3 | 0 of 9 | GFTLNTYQIS | VIYSDGRRTFYGDSVK | GRAAGTFDS
19 µM | 1 of 3 | 1 of 9 | GFTLNSYGIS | VIKSDGRWTFYGDSVK | GQAAGTFDS
no signal | 0 of 3 | 0 of 9 | GCTMNSYGIS | VIYSDGRRAFYGDSVK | GRAAGTFDS
170 µM | 2 of 3 | 3 of 9 | IFTLNSYGIS | VIYSDGRRTFYGISVA | GRAAGTFDS
no signal | 0 of 3 | 0 of 9 | GFTLNSYGIS | VIYSDGRDTFYGDSVK | GRGAWTFDS
no signal | 0 of 3 | 0 of 9 | GFTLNSYGIS | VIYSDLRRTFYGDSVK | PRAAGAFDS
7.2 µM | 2 of 3 | 3 of 9 | GFTLNSYGIS | VIYSDGRGTFYGDSVP | GRAAGTFLS
no signal | 0 of 3 | 1 of 9 | GFTLNSYGIS | VDYSDKRRTFYGDSVK | GRYAGTFDS
no signal | 0 of 3 | 2 of 9 | GFTCNSYGIS | VIYSDGRRTFYGDSVK | GRAAGTTDT
1.6 µM | 1 of 3 | 3 of 9 | GFTLNSYGIS | VIYLDPRRLFYGDSVK | GRAAGTFDS
20 µM | 2 of 3 | 0 of 9 | GFTLVSYGGS | VIYSDGRRTFYGDSVK | GRAAGTFDS
no signal | 0 of 3 | 1 of 9 | GFTYNSYGIS | VIYSDGRREFYGDNVK | GRAAGTFDS
35 µM | 1 of 3 | 5 of 9 | GFTLNSRGIS | VIYSDGRRTFYGDSVL | GRAGGTFDS